Molecular target: T1, Caspase-1 (Homo sapiens) (UniProt P29466)
T1 sequence (whole entry): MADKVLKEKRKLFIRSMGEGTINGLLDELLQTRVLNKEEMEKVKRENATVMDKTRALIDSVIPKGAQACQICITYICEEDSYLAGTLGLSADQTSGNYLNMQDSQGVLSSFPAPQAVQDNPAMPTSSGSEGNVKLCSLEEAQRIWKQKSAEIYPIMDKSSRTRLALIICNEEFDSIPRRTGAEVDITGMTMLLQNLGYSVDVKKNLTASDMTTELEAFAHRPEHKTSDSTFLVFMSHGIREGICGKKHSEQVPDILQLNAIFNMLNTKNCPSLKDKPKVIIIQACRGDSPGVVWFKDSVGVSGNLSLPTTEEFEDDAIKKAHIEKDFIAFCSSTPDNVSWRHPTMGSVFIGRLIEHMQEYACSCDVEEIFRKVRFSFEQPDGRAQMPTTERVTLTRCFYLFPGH
Test: Inhibition of interleukin-1-beta converting enzyme at pH 7.4, 37 degree C

For CC(C)[C@H](NC(=O)OCc1ccccc1)C(=O)N[C@@H](C)C(=O)N[C@@H](CC(=O)O)C(=O)COP(=O)(c1ccccc1)c1ccccc1, the K obs / 1 was 117000 M⁻¹ s⁻¹.
